An excerpt weighted towards active compounds, which were near 1.8% of everything screened.
RAD54 inh: blocks human RAD54 Holliday junction branch migration | FAM/BHQ fluorescence | Q92698 | actives 0.14% (n = 360,000) | inhibition, % at 10.4 µM;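 active = mean normalized replicate activity at least 40 and at least half of replicates scoring 40 or more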;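 also: 0% = median of neutral control wells and 100% = median of positive control wells; inhibitors cause a drop in the FAM fluorescence signal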
SIRT5 block: sirtuin-5 (human) deacylase inhibition. AID 652115. inhibition, % at 15 µM. Purified SirT5, succinyl-peptide AMC, trypsin-coupled fluorescence. Q9NXA8. actives 1.1% (n = 330,000); in the data active = inhibition above about 15%
E-sel inducer: induces E-selectin expression in human endothelial cells; P16581; HUVEC E-selectin immunofluorescence imaging; normalized: neutral wells 0, TNF-alpha wells 100; activation, % at 7.58 µM; actives 0.37% (n = 260,000); AID 686992;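 active = mean E-selectin-positive cell signal at least 10% of the positive control, reached in at least 60% of replicates, without over 20% cell loss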
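Material: HUVEC primary endothelial cells; Amount: 3,000 cells per well; Dosing: single concentration; Medium: EGM-2 growth medium on 0.1% gelatin-coated wells; Read-out basis: percent E-selectin-positive cells; Signal: immunofluorescence imaging; Control set: TNF-alpha, DMSO.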
AF4-AF9 inh: MLL-AF4/AF9 protein interaction inhibition; P42568; AlphaScreen, biotin-AF4 peptide binding to FLAG-AF9; inhibition, % at 10 µM; actives 0.47% (n = 350,000);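 active = every replicate reaching a set inhibition limit, whatever the replicate mean, cut at about 25% in these data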;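 also: 0% = plate neutral control median and 100% = total signal loss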
Yeast UUG start: modulators of start codon recognition fidelity in yeast; AID 602363; activity score, % at 18.7 µM; S. cerevisiae UUG-firefly luciferase reporter, luminescence/redox ratio; actives 0.13% (n = 350,000);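 active = replicate mean at a twofold rise or more, about +100% in these data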;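 note: firefly luciferase made from a UUG start codon reports start codon fidelity; reporter light over untreated wells divided by growth signal over untreated wells; some hits fall short of that in this replicate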
RAD52 anneal inh: blocks human RAD52 DNA annealing. P43351. recombinant RAD52 DNA annealing, FRET fluorescence. inhibition, % at 18.7 µM. actives 0.46% (n = 360,000);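 active = every replicate showing at least 50% inhibition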
* = called active by the depositor; / = not tested or not shown.

The line under a structure holds: RAD54 inh, SIRT5 block, E-sel inducer, AF4-AF9 inh, Yeast UUG start, RAD52 anneal inh
C[C@H](NC(=O)C[C@@H]1CC[C@@H](NC(=O)CN2CCOCC2)[C@H](CO)O1)c1ccccc1
 : 3, 8, -1, 1, -4, 6
C[C@@H](NC(=O)C[C@H]1C=C[C@H](NC(=O)C2CC2)[C@@H](CO)O1)c1ccccc1
 : 1, 17*, 0, -1, -2, -9
O=C(C[C@@H]1CC[C@@H](NC(=O)Cc2ccccn2)[C@H](CO)O1)NCCCN1CCOCC1
 : -6, 1, 1, -2, -21, -5
C[C@@H](NC(=O)C[C@H]1CC[C@@H](NC(=O)CN2CCOCC2)[C@@H](CO)O1)c1ccccc1
 : 5, 17*, 0, 2, -16, -10
O=C(NC[C@H]1CC[C@H]2[C@H](CN2Cc2ccc(Oc3ccccc3)cc2)O1)C1CCOCC1
 : /, -3, /, -4, /, 13
CCCNC(=O)N1CC(=O)N2[C@H](CO)[C@@H](c3ccc(C#Cc4cccc(F)c4)cc3)[C@H]2C1
 : /, -1, -1, -3, /, -6
COCCNC(=O)C[C@@H]1CC[C@@H]2[C@H](COC[C@@H](O)CN2C(=O)Nc2ccccc2OC)O1
 : 3, -3, 0, -3, /, -5
COc1cccc(C(=O)Nc2ccc3c(c2)OC[C@@H](C)N(C)C[C@H](C)[C@H](OC)CN(C)C3=O)c1
 : 4, 0, 0, 1, 1, 1
COc1ccc(NC(=O)N[C@H]2CC[C@H](CCNC(=O)CN3CCOCC3)O[C@H]2CO)cc1
 : -2, 2, 0, -3, 27, -1
COc1ccc2c3c([nH]c2c1)[C@H](CO)N(Cc1ccccc1)CC31CCN(C(=O)Nc2cccc(F)c2)CC1
 : /, 0, -1, -2, /, -7
CC(=O)N1c2ccc(S(=O)(=O)NCC3CCC(C(=O)NC4CCC(C)CC4)CC3)cc2CC1C (stereo not given)
 : 8, -3, /, -2, -3, -5
CC(=O)N1c2ccc(S(=O)(=O)NCCC(=O)NC3CCC(C)CC3)cc2CC1C (stereo not given)
 : -18, 44*, /, -6, 10, -5
COc1ccccc1CNc1ncccc1[N+](=O)[O-]
 : -12, 16*, 0, 3, -11, -12
OC[C@H]1N[C@@H](CNCC2CCC2)[C@@H]1c1ccc(C2=CCCCC2)cc1
 : /, 7, 0, 2, /, -22
COc1ccc(C(=O)NC2CC3CCCC(C2)N3Cc2ccccc2)c(OC)c1 (stereo not given)
 : -16, 24*, /, 0, -3, 0
COc1ccc(C(=O)NC2CC3CCCC(C2)N3Cc2ccccc2)cc1 (stereo not given)
 : -5, -2, /, -10, -10, -19
O=c1oc2ccc(Br)cc2cc1-c1nc2ccccc2o1
 : -6, -1, /, -4, 2, -10
Brc1ccc2oc(-c3ccn[nH]3)cc2c1
 : 7, /, 74*, -3, -15, -27
Cc1ncc(CN2CCC(CO)(Cc3ccccc3)CC2)s1
 : /, 18*, -1, -3, /, -5
COc1ccc(CNC(=O)C[C@H]2CC[C@@H]3[C@@H](COc4ccc(NC(C)=O)cc4C(=O)N3C)O2)cc1
 : -10, 2, 0, 0, -10, -2

A portion from further up, for reference:
The line under a structure holds: RAD54 inh, SIRT5 block, E-sel inducer, AF4-AF9 inh, Yeast UUG start, RAD52 anneal inh
Brc1ccc2oc(-c3ccn[nH]3)cc2c1
 : 7, /, 74*, -3, -15, -27
Cc1ncc(CN2CCC(CO)(Cc3ccccc3)CC2)s1
 : /, 18*, -1, -3, /, -5
COc1ccc(CNC(=O)C[C@H]2CC[C@@H]3[C@@H](COc4ccc(NC(C)=O)cc4C(=O)N3C)O2)cc1
 : -10, 2, 0, 0, -10, -2

Following part
The line under a structure holds: RAD54 inh, SIRT5 block, E-sel inducer, AF4-AF9 inh, Yeast UUG start, RAD52 anneal inh
CC(C)CN(CCCNC(=O)CC1Oc2ccccc2NC1=O)CC(C)C (stereo not given)
 : 8, -3, /, -2, 20, -13
CCCCN(CC)CCCNC(=O)CC1Oc2ccccc2NC1=O (stereo not given)
 : -5, 17*, /, 1, 8, -8
CNC[C@@H]1Oc2ccc(NS(C)(=O)=O)cc2C(=O)N([C@@H](C)CO)C[C@@H]1C
 : /, /, 33*, /, /, /
C[C@@H]1CN([C@H](C)CO)C(=O)c2cc(NS(C)(=O)=O)ccc2O[C@H]1CN(C)C(=O)Nc1ccccc1
 : -11, 2, 69*, 3, -12, 17
C[C@@H]1CN([C@H](C)CO)C(=O)c2cc(NS(C)(=O)=O)ccc2O[C@H]1CN(C)C(=O)Nc1ccc2c(c1)OCO2
 : -1, -6, 197*, -6, -7, 10
C[C@H](CO)N1C[C@H](C)[C@H](CN(C)C(=O)Nc2ccccc2)Oc2ccc(NS(C)(=O)=O)cc2C1=O
 : -1, 0, 74*, -10, -19, -1

Assay outcomes (PubChem)
